For assay [1], the target named is T1, WT PAC1R (Homo sapiens, UniProt P41586).
T1 construct: expressed in transfected cells; host or cells: CHO-K1 cells infected with BacMam virus (pJIF1.1)
T1 sequence (P41586 21-468): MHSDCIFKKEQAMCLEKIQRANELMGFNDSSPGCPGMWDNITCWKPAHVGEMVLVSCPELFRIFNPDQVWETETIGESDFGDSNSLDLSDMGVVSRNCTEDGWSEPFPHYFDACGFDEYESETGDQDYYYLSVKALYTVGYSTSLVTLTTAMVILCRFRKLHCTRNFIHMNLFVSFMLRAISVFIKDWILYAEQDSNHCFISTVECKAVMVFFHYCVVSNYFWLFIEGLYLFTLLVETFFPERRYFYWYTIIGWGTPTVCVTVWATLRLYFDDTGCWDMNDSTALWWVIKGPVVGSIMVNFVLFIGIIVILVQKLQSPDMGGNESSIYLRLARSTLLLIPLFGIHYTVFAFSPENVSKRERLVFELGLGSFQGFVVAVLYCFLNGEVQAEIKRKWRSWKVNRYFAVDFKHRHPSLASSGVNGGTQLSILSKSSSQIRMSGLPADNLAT
The format is cell-based. The following applies: PACAP38 compared with maxadilan.

The target of a further assay is T2, PAC1R Y130A (Homo sapiens, UniProt P41586, Y130A).
T2 construct: expressed in transfected cells; host or cells: CHO-K1 cells infected with BacMam virus (pJIF1.1)
T2 sequence (P41586 21-468 Y130A): T1 sequence (P41586 21-468) with Y110A
Put plainly: Functional cAMP assay, PAC1R mutant. The format is cell-based. The following applies: Y130A vs WT.

For the next assay, the target named is T3, PAC1R F131A (Homo sapiens, UniProt P41586, F131A).
T3 construct: expressed in transfected cells; host or cells: CHO-K1 cells infected with BacMam virus (pJIF1.1)
T3 sequence (P41586 21-468 F131A): T1 sequence (P41586 21-468) with F111A
Nature of the assay: Functional cAMP assay, PAC1R mutant. The conditions noted are these: F131A vs WT. The format is cell-based. For orientation: Changes in cAMP serve as a functional read-out for many G protein-coupled receptors.

The target of another assay is T4, PAC1R R199A (Homo sapiens, UniProt P41586, R199A).
T4 construct: expressed in transfected cells; host or cells: CHO-K1 cells infected with BacMam virus (pJIF1.1)
T4 sequence (P41586 21-468 R199A): T1 sequence (P41586 21-468) with R179A
Put plainly: Functional cAMP assay, PAC1R mutant. Type of assay: cell-based. The following applies: R199A vs WT.

Assay [2] has as its target T1, WT PAC1R. The conditions noted are these: introductory statement, no reference given; cited from earlier work.

The structures appear in SMILES notation. Numbering of substitutions follows the chain as printed.

For the molecule `CC[C@H](C)[C@H](NC(=O)CNC(=O)[C@H](CC(=O)O)NC(=O)[C@H](CO)NC(=O)[C@@H](N)Cc1c[nH]cn1)C(=O)N[C@@H](Cc1ccccc1)C(=O)N[C@H](C(=O)N[C@@H](CC(=O)O)C(=O)N[C@@H](CO)C(=O)N[C@@H](Cc1ccc(O)cc1)C(=O)N[C@@H](CO)C(=O)N[C@@H](CCCNC(=N)N)C(=O)N[C@@H](Cc1ccc(O)cc1)C(=O)N[C@@H](CCCNC(=N)N)C(=O)N[C@@H](CCCCN)C(=O)N[C@@H](CCC(N)=O)C(=O)N[C@@H](CCSC)C(=O)N[C@@H](C)C(=O)N[C@H](C(=O)N[C@@H](CCCCN)C(=O)N[C@@H](CCCCN)C(=O)N[C@@H](Cc1ccc(O)cc1)C(=O)N[C@@H](CC(C)C)C(=O)N[C@@H](C)C(=O)N[C@@H](C)C(=O)N[C@H](C(=O)N[C@@H](CC(C)C)C(=O)NCC(=O)N[C@@H](CCCCN)C(=O)N[C@@H](CCCNC(=N)N)C(=O)N[C@@H](Cc1ccc(O)cc1)C(=O)N[C@@H](CCCCN)C(=O)N[C@@H](CCC(N)=O)C(=O)N[C@@H](CCCNC(=N)N)C(=O)N[C@H](C(=O)N[C@@H](CCCCN)C(=O)N[C@@H](CC(N)=O)C(=O)N[C@@H](CCCCN)C(N)=O)C(C)C)C(C)C)C(C)C)[C@@H](C)O` [PACAP38, pituitary adenylate cyclase-activating polypeptide], the “PAC1R activation potency” value on WT PAC1R [1] was “activate the PAC1R in similar potencies”. In addition, the “ligand-induced receptor activity” value is “but not PACAP38-induced receptor activity” at PAC1R Y130A, “but not PACAP38-induced receptor activity” at PAC1R F131A and “specifically affected PACAP38-induced receptor activity” at PAC1R R199A. Also, the “PAC1R activation” value on WT PAC1R [2] was “potently activate PAC1R”.
